Molecular target: STAT6 (Homo sapiens (Human), UniProt P42226)
Experiment: STAT6 degrader assay (HiBiT, HeLa LgBiT clone 4.14)
Format: cell-based
Details: read-out: STAT6 degradation DC50; HeLa LgBiT clone 4.14, 4-24 h; geometric mean; given for compounds with >80% Emax
Description: This was a HiBit based assay. A HeLa cell line stably transfected with a small protein, LgBit (Large Bit) was obtained from Promega. These cells express endogenous STAT6. A small 11 amino acid gene sequence (HiBiT) was inserted in the STAT6 gene using CRISPR technology. Once STAT6 protein is expressed in the cells, the HiBiT sequence will bind the LgBit in the cells resulting in a functional NanoBiT protein, giving a luminescent tag to STAT6, see FIG. 2.
Single cell clones were prepared and the clone 4.14 was selected for the assay based on that clone showing high luminescence, high STAT6 phosphorylation upon stimulation with IL-4, and inhibition of luminescence when cells were treated with STAT6 siRNA.
HeLa LgBiT clone 4.14 cells were suspended in DMEM with 10% FCS, 1% Pen/Strep, Na-pyrovate and Hygromycin B, at a concentration of 1.25*105 cells pr mL. 5000 cells were added pr well of a 384 well plate and 20 nL of compound was added by Echo® liquid handler. NN6394A (terfenadine, a toxic compound) was added to control wells at 50 μM concentration to establish the assay window. In these wells the cells are dead which equals 100% degradation of STAT6. […]
The luminescence in the wells as a measure of non-degraded STAT6 was measured in a plate reader (BMG Pherastar FSX). The measured DC50 (in nM) was determined. […]

Chains of the proteins cited; added tags and fusions are not shown.
UniProt P42226, whole entry: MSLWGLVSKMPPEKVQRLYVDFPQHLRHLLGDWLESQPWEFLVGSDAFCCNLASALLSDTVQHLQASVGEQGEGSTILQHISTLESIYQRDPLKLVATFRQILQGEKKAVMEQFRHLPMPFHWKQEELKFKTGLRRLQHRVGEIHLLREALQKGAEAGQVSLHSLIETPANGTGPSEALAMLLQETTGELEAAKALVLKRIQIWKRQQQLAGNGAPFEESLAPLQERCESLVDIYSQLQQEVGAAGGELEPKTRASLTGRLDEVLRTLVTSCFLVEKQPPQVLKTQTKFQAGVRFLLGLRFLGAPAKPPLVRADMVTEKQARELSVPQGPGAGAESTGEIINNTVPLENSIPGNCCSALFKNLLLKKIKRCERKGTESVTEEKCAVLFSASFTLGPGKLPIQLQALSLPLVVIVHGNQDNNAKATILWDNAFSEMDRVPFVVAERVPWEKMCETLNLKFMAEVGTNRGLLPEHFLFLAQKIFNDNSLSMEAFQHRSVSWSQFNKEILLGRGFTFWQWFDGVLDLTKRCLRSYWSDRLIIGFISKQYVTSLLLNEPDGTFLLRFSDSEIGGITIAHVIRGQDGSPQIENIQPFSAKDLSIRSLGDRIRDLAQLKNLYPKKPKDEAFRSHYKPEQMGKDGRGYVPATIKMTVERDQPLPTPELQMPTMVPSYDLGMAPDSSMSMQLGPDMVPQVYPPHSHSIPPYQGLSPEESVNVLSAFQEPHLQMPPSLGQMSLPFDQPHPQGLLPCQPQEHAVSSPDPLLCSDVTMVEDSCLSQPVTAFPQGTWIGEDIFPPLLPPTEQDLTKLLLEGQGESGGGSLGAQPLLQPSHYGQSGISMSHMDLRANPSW

Compound `COCCn1c(=O)n(C2CCC(=O)NC2=O)c2ccc(CN3CCN(CC4CCN(C(=O)c5ccc(C6CCN(Cc7cc8c(-c9ccc%10[nH]ncc%10c9)ccnc8n7C)CC6)cc5)CC4)CC3)cc21` (stereo not shown) has a DC50 of 1.5 nM.

From US20250325677A1, “STAT6 DEGRADERS” (Gilead Sciences, Inc., priority 2024, published 2025)
